The entries are a selection whose mix differs from that of the whole data set. Some salts or complexes appear as unconnected parts, following the source record. Calls of active or inactive are those of the source. Cut-off read from the data, not from the text of the source: active = inhibition above about 30% (passing the limit was not always enough); inconclusive = no clear call, values can overlap the other calls.

Broadly, the inhibition is the relative decrease from the control value, in per cent.

This assay concerns PvdQ acylase [Pseudomonas aeruginosa LESB58]. The experiment in a line: P. aeruginosa PvdQ acylase inhibitors, primary screen, biochemical, fluorescence, plate reader and imaging, single point (AID 488965).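 Note: 0% = vehicle neutral wells and 100% = reference inhibitor wells.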 To be noted: purified PvdQ acylase, at 10 µM, stronger effect = higher value.
With `CCN(CC)CCCOC(=O)C(O)(c1ccccc1)C1CCCCC1` (stereo not given), the inhibition was inactive: -12.4%.
`Cc1c([N+](=O)[O-])cc([N+](=O)[O-])c(Br)c1[N+](=O)[O-]`: the inhibition was inactive: -7.01%.
On to `O=[N+]([O-])c1cc([N+](=O)[O-])c(OC2CCCCC2O)c([N+](=O)[O-])c1` (stereo not given), for which the inhibition was inactive: -22.6%.
To `CCCCCOc1ccc(NP(C)(=O)Oc2ccc(Cl)cc2Cl)cc1` (stereo not given) belongs inactive: -15.3%; to `CP(=O)(Nc1ccccc1)Oc1ccc(F)cc1` (stereo not given), inactive: -5.11%; to `COc1ccc(OP(C)(=O)Nc2ccc(SC(F)(F)F)cc2)cc1` (stereo not given), inactive: -14.8%.
Turning to `CCOC(=O)c1ccc(NP(C)(=O)Oc2ccc(F)cc2)cc1` (stereo not given), the inhibition is inactive: -14.6%.
As for `O=C(OCCN1CCN(CCOCc2ccccc2)CC1)C(O)(c1ccccc1)c1ccccc1`, the inhibition is inactive: -1.43%.
In the case of `O=C(OC1CN2CCC1CC2)c1ccc([N+](=O)[O-])cc1` (stereo not given), the inhibition was inactive: -10.6%.
Take `COc1ccc2c(c1O)-c1c(O)c(OC)cc3c1[C@H](C2)[N+](C)(C)CC3.O=[N+]([O-])c1cc([N+](=O)[O-])c([O-])c([N+](=O)[O-])c1[O-]`: the inhibition is inactive: -0.87%.
On to `CC(C)c1ccc(OP(C)(=O)Nc2ccc(SC(F)(F)F)cc2)cc1` (stereo not given), for which the inhibition was inactive: -8.45%.
Take `CP(=O)(Nc1ccccc1F)Oc1ccccc1` (stereo not given): the inhibition was inactive: -5.47%.
In the case of `CP(=O)(Nc1ccc2c(c1)OCCO2)Oc1ccccc1` (stereo not given), the inhibition is inactive: -10.7%.
The figure for `Cc1ccccc1NP(C)(=O)Nc1ccccc1C` is inactive: -9.67%; for `CP(=O)(Nc1ccc(SC(F)(F)F)cc1)Oc1ccc(F)cc1` (stereo not given) it is inactive: -11%.
As for `CCOP(C)(=S)SCC(=O)NC(C)(CC)C(=O)O` (stereo not given), the inhibition was inactive: -5.67%.
Take `O=[N+]([O-])c1cc([N+](=O)[O-])c(NCC2CCS(=O)(=O)C2)c([N+](=O)[O-])c1` (stereo not given): the inhibition was inactive: -11.1%.
In the case of `Cc1cc(-c2cccc3ccccc23)c(C)cn1.O=[N+]([O-])c1cc([N+](=O)[O-])c(O)c([N+](=O)[O-])c1`, the inhibition was inactive: 0.839%.
The figure for `O=[N+]([O-])c1ccc(OP2(=O)COCCO2)cc1` (stereo not given) is inactive: -9.25%; for `Cc1c(C(c2ccc3c(c2)OCO3)c2c(C)n(C)n(-c3ccccc3)c2=O)c(=O)n(-c2ccccc2)n1C.O=[N+]([O-])c1cc([N+](=O)[O-])c(O)c([N+](=O)[O-])c1` it is inactive: -11.7%.
As to `COc1ccc(OP(C)(=O)Nc2cccc(Br)c2)cc1` (stereo not given), the inhibition was inactive: -7.15%.
Turning to `COc1ccc(NP(C)(=O)Oc2ccccc2OC)cc1` (stereo not given), the inhibition was inactive: 0.398%.
As to `CN(C)CCOC(=O)C(O)(c1ccccc1)C1CCCCC1` (stereo not given), the inhibition was inactive: -7.51%.
For `CP(=O)(OC12CC3CC(CC(C3)C1)C2)OC12CC3CC(CC(C3)C1)C2`, the inhibition is inactive: -12.3%.
As for `CCOC(=O)c1ccc(NP(C)(=O)Oc2ccc(Cl)cc2)cc1` (stereo not given), the inhibition is inactive: -10.5%.
For `CP(=O)(Nc1ccc(Cl)cc1)Oc1ccc(F)cc1` (stereo not given), the inhibition was inactive: 0.0445%.
To `COc1ccccc1OP(C)(=O)Nc1ccccc1Br` (stereo not given) belongs inactive: -12.1%; to `CC(C)(C)c1ccc(OP(C)(=O)O)cc1`, inactive: -1.36%; to `CN(C)C(=O)c1c([N+](=O)[O-])cc([N+](=O)[O-])cc1[N+](=O)[O-]`, inactive: -19.5%.
The figure for `COc1ccc(OP(C)(=O)Nc2ccc(Br)cc2)cc1` (stereo not given) is inactive: -6.6%; for `CCN(CC)CC(O)COC(=O)C(O)(c1ccccc1)C1CCCCC1` (stereo not given) it is inactive: 0.073%; for `CCc1ccc(OP(C)(=O)Nc2cccnc2)cc1` (stereo not given) it is inactive: -12.2%.
With `CP(=O)(Oc1ccccc1)N1CCOC1=O` (stereo not given), the inhibition is inactive: 1.68%.
The figure for `O=C(OCCCN1CCCC1)C(O)(c1ccccc1)C1CCCCC1` (stereo not given) is inactive: -6.08%; for `COc1ccccc1OP(C)(=O)Nc1c(C)n(C)n(-c2ccccc2)c1=O` (stereo not given) it is inactive: -6.99%.
Turning to `Cc1c(NP(C)(=O)Oc2ccc(C(C)C)cc2)c(=O)n(-c2ccccc2)n1C` (stereo not given), the inhibition was inactive: -2.34%.
With `O=[N+]([O-])c1cc([N+](=O)[O-])c(Nc2ccccn2)c([N+](=O)[O-])c1`, the inhibition was inactive: 4.25%.
Consider `CCc1ccc(OP(C)(=O)O)cc1`, for which the inhibition was inactive: -5.98%.
In the case of `COc1ccccc1OP(C)(=O)Nc1ccc(C)cc1C` (stereo not given), the inhibition is inactive: -1.44%.
As to `CP(=O)(Nc1ccccn1)Oc1ccccc1` (stereo not given), the inhibition was inactive: 2.93%.
Turning to `COc1ccccc1OP(C)(=O)Nc1ccc(Br)cc1` (stereo not given), the inhibition was inactive: 0.0285%.
The figure for `CN(C)CCOC(=O)C(O)(c1ccccc1)C1CCCC1` (stereo not given) is inactive: -20.9%; for `COc1ccc(OP(C)(=O)Nc2ccccn2)cc1` (stereo not given) it is inactive: -4.13%; for `CP(=O)(Nc1ccc(Cl)cc1Cl)Oc1ccccc1` (stereo not given) it is inactive: -0.276%.
Take `CCCCCCCCCCCCCCCC1C[N+](C)(C)CCOP(C)(=O)O1` (stereo not given): the inhibition was inactive: 10.5%.
For the compound `CP(=O)(OCCOc1ccccc1)OCCOc1ccccc1`, the inhibition is inactive: 1.36%.
Turning to `Cc1cc(C)cc(OP(C)(=O)Nc2cccc(C(F)(F)F)c2)c1` (stereo not given), the inhibition was inactive: 4.31%.
With `O=C1C(O)=C([N+](=O)[O-])C(=O)C(O)=C1[N+](=O)[O-]`, the inhibition was inactive: -7.51%.
To `COc1ccc(OP(C)(=O)Nc2ccccc2Br)cc1` (stereo not given) belongs inactive: -16.1%; to `COc1ccccc1OP(C)(=O)Nc1ccc(C)c(C)c1` (stereo not given), inactive: -5.57%; to `CCOC(=O)c1ccc(NP(C)(=O)Oc2ccccc2)cc1` (stereo not given), inactive: -6.06%.
To `Cc1ccc(NP(C)(=O)Oc2ccccc2)c(C)c1` (stereo not given) belongs inactive: -15.4%; to `COc1ccccc1OP(C)(=O)Nc1ccc(C)cc1` (stereo not given), inactive: -2.99%; to `COc1ccc(OP(C)(=O)Nc2cccc(F)c2)cc1` (stereo not given), inactive: -8.49%.
Regarding `COc1ccccc1OP(C)(=O)Nc1cc(Cl)ccc1C` (stereo not given), the inhibition is inactive: -11.6%.
On to `Cc1cc(C)cc(OP(C)(N)=O)c1` (stereo not given), for which the inhibition is inactive: -7.79%.
With `O=[N+]([O-])c1cc([N+](=O)[O-])c(Nc2cccnc2)c([N+](=O)[O-])c1`, the inhibition was inactive: -11.2%.
To `Cc1cccc(C)c1OP(C)(N)=O` (stereo not given) belongs inactive: 2.11%; to `CC(C)(C)c1ccc(OP(C)(=O)Nc2ccc(SC(F)(F)F)cc2)cc1` (stereo not given), inactive: -0.655%.
The figure for `O=[N+]([O-])c1ccc2c(c1)C=Nc1ccccc1O2` is inactive: 18.8%; for `CCN(CC)CCCOC(=O)C(O)(c1ccccc1)c1ccccc1` it is inactive: 6.02%.
`CCOP(C)(=S)SCC(=O)NC(C)C(=O)O` (stereo not given): the inhibition is inactive: -14.3%.
On to `CCOC(=O)c1ccc(NP(C)(=O)Oc2ccc(OC)cc2)cc1` (stereo not given), for which the inhibition is inactive: -12%.
For the compound `CP(=O)(Nc1ccccn1)Oc1ccc(Cl)cc1` (stereo not given), the inhibition was inactive: 0.51%.
To `CP(=O)(Oc1ccccc1)OC(c1ccccc1)C(F)(F)F` (stereo not given) belongs inactive: -8.69%.
To `Cc1cccc(C)c1OP(C)(=O)Nc1ccc(SC(F)(F)F)cc1` (stereo not given) belongs inactive: -8.32%; to `Cc1cc(C)cc(OP(C)(=O)Nc2ccc(SC(F)(F)F)cc2)c1` (stereo not given), inactive: 11.8%; to `CP(=O)(NC(=O)Nc1ccccc1)Oc1ccccc1` (stereo not given), inactive: 3.97%.
Turning to `CCc1ccc(OP(C)(=O)N2CCN(c3ccc([N+](=O)[O-])cc3)CC2)cc1` (stereo not given), the inhibition was inactive: -7.82%.
In the case of `CP(=S)(Nn1cnnc1)Oc1ccccc1` (stereo not given), the inhibition is inactive: 9.04%.
To `COc1ccccc1OP(C)(=O)Nc1ccccc1` (stereo not given) belongs inactive: -3.2%; to `CP(=O)(Nc1ccccc1Br)Oc1ccccc1` (stereo not given), inactive: -10.4%; to `CN1CCCCC1COC(=O)C1(O)c2ccccc2CCc2ccccc21` (stereo not given), inactive: 5.61%.
Consider `COc1ccccc1OP(C)(=O)Nc1c(C)cccc1C` (stereo not given), for which the inhibition was inactive: -3.72%.
With `CCCOc1ccc(NP(C)(=O)Oc2ccc(Cl)cc2)cc1` (stereo not given), the inhibition was inactive: -8.46%.
To `CP(=O)(Nc1ccc(SC(F)(F)F)cc1)Oc1ccccc1` (stereo not given) belongs inactive: -1.27%.
To `CCOC(=O)C(CC)C1=NC(C)(C)Cc2ccccc21.O=[N+]([O-])c1cc([N+](=O)[O-])c(O)c([N+](=O)[O-])c1` (stereo not given) belongs inactive: -3.12%; to `CC1=C2N=C(C=C3N=C(C(C)=C4[N-][C@@](C)([C@@H]5N=C1[C@](C)(CCC(=O)NC[C@@H](C)OP(=O)([O-])O[C@H]1[C@@H](O)[C@@H](n6cnc7cc(C)c(C)cc76)O[C@@H]1CO)[C@H]5CC(N)=O)[C@@](C)(CC(N)=O)[C@@H]4CCC(N)=O)[C@@](C)(CC(N)=O)[C@@H]3CCC(N)=O)C(C)(C)[C@@H]2CCC(N)=O.[C-]#N.[Co+3]`, inactive: 2.13%.
Turning to `O=[N+]([O-])c1cc([N+](=O)[O-])c(Nc2nnnn2CCO)c([N+](=O)[O-])c1`, the inhibition is inactive: -1.15%.
As for `O=[N+]([O-])c1cc([N+](=O)[O-])c(-c2cnn(-c3ccccc3)c2)c([N+](=O)[O-])c1`, the inhibition was inactive: -16.1%.
In the case of `Cc1nc2ccc3ccccc3c2s1.O=[N+]([O-])c1cc([N+](=O)[O-])c(O)c([N+](=O)[O-])c1`, the inhibition was inactive: -8.46%.
For the compound `O=[N+]([O-])c1cc([N+](=O)[O-])c(-n2nnc3ccccc32)c([N+](=O)[O-])c1`, the inhibition was inactive: 2.67%.
In the case of `Cc1cc(C)cc(OP(C)(=O)Nc2ccccn2)c1` (stereo not given), the inhibition was inactive: 2.18%.
`CP(=O)(Nc1cccc(Br)c1)Oc1ccccc1` (stereo not given): the inhibition is inactive: -5.76%.
To `Cc1ccc(C)c(NP(C)(=O)Oc2ccccc2)c1` (stereo not given) belongs inactive: 4.38%.
For `COc1ccccc1OP(C)(=O)Nc1cccc(Br)c1` (stereo not given), the inhibition is inactive: -17.8%.
Consider `Cc1cc(C)cc(OP(C)(=O)Nc2ccc(C)cc2C)c1` (stereo not given), for which the inhibition is inactive: -5.96%.
With `CCOC(=O)c1ccc(NP(C)(=O)Oc2cc(C)cc(C)c2)cc1` (stereo not given), the inhibition was inactive: -10.9%.
For `CC1=NCCc2c1[nH]c1ccccc21.O=[N+]([O-])c1cc([N+](=O)[O-])c(O)c([N+](=O)[O-])c1`, the inhibition was inactive: -5.65%.
Consider `O=C(O)c1cccc(Nc2c([N+](=O)[O-])cc([N+](=O)[O-])cc2[N+](=O)[O-])c1`, for which the inhibition was inactive: -5.03%.

Values taken from PubChem BioAssay AID488965 (Broad Institute, 2010).
